This note sets out measurements from PMC12645437, “Orthogonal IMiD-Degron Pairs Induce Selective Protein Degradation in Cells” (ACS Chemical Biology, 2025).

One experiment deals with Jurkat cells. As to the kind of experiment: TMTpro quantitative proteomics, 16 h. Conditions: 1 μM, Welch's t test.
Experiment [1] concerns embryonic stem cells (ESCs). In words: TMTpro quantitative proteomics, 16 h. Conditions: 1 μM, of 10442 proteins assessed.

Take `Nc1cccc2c1C(=O)N(C1CCC(=O)NC1=O)C2=O` (centres unmarked) [Compound 2, pomalidomide]: the “proteins significantly degraded (quantitative proteomics)” value in the experiment with Jurkat cells is “at least 20 proteins”; in experiment [1] it was “approximately 25 proteins”.
